Source: patent US20240245798A1, “NOVEL ANTI-TPBG ANTIBODY AND ANTIBODY-DRUG-CONJUGATES BASED THEREON, THERAPEUTIC METHODS AND USES THEREOF” (Tubulis GmbH, priority 2022, published 2024)

Tested on: recombinant human FcγR (FcγRI, FcγRIIa/CD32, FcγRIIIa/CD16)
Assay: Lumit FcγR Binding Immunoassays (FcγRI, FcγRIIa/CD32, FcγRIIIa/CD16)
Conditions: competition with Tracer-LgBiT; n=1
Experimental: with Fc gamma receptors (FcγRs) was analyzed. FcγR interaction studies were performed using the Lumit™ FcγR Binding Immunoassays (FcγRn, FcγRI, FcγRIIa/CD32 R131/H131 polymorphism, FcγRIIIa/CD16 V158/F158 polymorphism; Promega) based on a competition principle and luciferase detection according to the manufacturer's instructions. […] In the absence of an antibody analyte or if no interaction of the tested antibody with FcγRs takes place, Tracer-LgBiT binds to the FcγR-SmBiT target, resulting in maximum luminescence signal. In the case of successful interaction with FcγRs, the tested antibody/ADC will compete with Tracer-LgBiT for binding to the FcγR target, resulting in a concentration-dependent decrease in the luminescent signal. Luminescence is measured on a microplate reader Infinite M200 Pro (Tecan). Graphs show n=1.
In the absence of an antibody analyte or if no interaction of the tested antibody with FcγRs takes place, Tracer-LgBiT binds to the FcγR-SmBiT target, resulting in maximum luminescence signal. In the case of successful interaction with FcγRs, the tested antibody/ADC will compete with Tracer-LgBiT for binding to the FcγR target, resulting in a concentration-dependent decrease in the luminescent signal. Luminescence was measured on a microplate reader Infinite M200 Pro (Tecan). Graphs show n=1.

In the case of trastuzumab [reference compound], the “Interaction with FcγR” value was “reduced interaction”.
